## AlphaSeq binding of Ab-14 light chain variants to a spike HR2 peptide

Reference: Li et al. 2023, doi:10.1038/s41467-023-39022-2. File: FLAb, binding data.

Target: peptide PDVDLGDISGINAS, taken from heptad repeat 2 (HR2) of SARS-CoV-2 spike.

Each scFv is VH, the linker GGGGSGGGGSGGGGS, VL, as in the parent Ab-14, and differs from it in the CDRs of the light chain only.
VH: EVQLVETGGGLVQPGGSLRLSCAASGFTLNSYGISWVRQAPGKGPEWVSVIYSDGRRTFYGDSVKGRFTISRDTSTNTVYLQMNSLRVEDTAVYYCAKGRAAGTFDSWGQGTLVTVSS
VL: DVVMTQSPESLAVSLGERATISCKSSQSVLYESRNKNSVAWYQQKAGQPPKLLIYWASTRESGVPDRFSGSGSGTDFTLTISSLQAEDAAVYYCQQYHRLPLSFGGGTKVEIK

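Phage display of a naive human antibody library on the peptide gave the parent. Designed CDR sequences, proposed from the first random library and measured here. Their group label is 14L_GP_HC (GP: Gaussian process model; HC: hill climbing; a sequence that several methods proposed may carry one label only). The assay is AlphaSeq: two haploid yeast populations carry antibody and antigen on their surface. Mating (16 h, 30 °C) was followed by selection of diploids and sequencing of their barcodes. A regression on co-assayed BCL2-family reference pairs converts the normalised counts of each replicate to an apparent Kd. Each pool was mated in six replicate cultures.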

Each variant is given by its three light chain CDRs, as the data file delimits them; those of the parent are KSSQSVLYESRNKNSVA, WASTRES, QQYHRLPLS. Scale: log10 of Kd in nM, estimated from mating counts; low values are strong binders. Replicates are averaged; those with no signal do not enter the mean. An entry "n.d." has no value in the source: the pair was not observed among the diploids in that replicate. This suggests poor binding but is not conclusive. In the paper, a design with two or fewer of six values counts as a poor binder. Values of this round are not directly comparable with the first-round values of the same sequences. Nonspecific signal, from three strains lacking the peptide, appeared in 4% of pairings of all light chain designs, centred on 2.64 (5% of these signals below 1.59); values are not corrected for it. For each scFv, signals with the empty controls are counted beside the result, with their mean in brackets.

| CDR-L1 | CDR-L2 | CDR-L3 | replicates, log10 nM | log10 Kd (nM), mean | empty controls |
|---|---|---|---|---|---|
| HSSPSVEYESRNKNSVA | NASTRES | QQYHRLPLQ | 0.24 / 0.21 / 0.18 / 0.31 / -0.06 / 0.11 | 0.16 | 1 of 18 (2.17) |
| KVSISYLLESRNKNSVA | EASTREV | QQYHRLPLS | -0.19 / -0.15 / -0.49 / -0.45 / -0.24 / -0.14 | -0.28 | 1 of 18 (2.14) |
| KQAQAFLMESRNKNSVA | DANTRES | QQYHRLPLS | 0.18 / 0.36 / 0.08 / -0.03 / 0.18 / 0.22 | 0.17 | 0 of 18 |
| KVSQSFLYESRNKNAVA | GASTRES | QQYHRLDLS | -0.23 / 0.04 / -0.41 / -0.41 / -0.44 / -0.24 | -0.28 | 1 of 18 (2.28) |
| HSSPSVLYESRNKNNVA | DASTRES | QQYHRLPLS | -0.24 / -0.43 / -0.60 / -0.41 / -0.59 / -0.24 | -0.42 | 0 of 18 |
| KFSQWVLYESRTKNSVA | DASTRES | QQYHRLPLS | 0.23 / -0.09 / -0.05 / -0.31 / -0.11 / -0.20 | -0.09 | 0 of 18 |
| KMSQSVLMESRNKNSVA | EASLRES | QQYHRLPLS | 1.74 / 1.95 / 2.09 / 1.70 / 1.57 / 1.98 | 1.84 | 0 of 18 |
| KQSQSVSGESRNKNSVA | MASTRES | QQYHRLPLS | 1.11 / 0.27 / 0.53 / 0.56 / 0.91 / 0.87 | 0.71 | 3 of 18 (2.86) |
| KSSQSWLYESRNKNSVA | GASRRES | QQYHRLPLS | 0.29 / 0.04 / -0.32 / 0.34 / 0.12 / 0.16 | 0.10 | 0 of 18 |
| KSSISTLYESRNKNSVA | AASTRES | QQYHRLPLS | 0.19 / 0.22 / 0.08 / 0.17 / 0.15 / 0.24 | 0.17 | 1 of 18 (4.92) |
| HISQSVLYESRNKNSVA | NGSTRES | QQYHRLPLS | -0.32 / -0.15 / -0.52 / -0.77 / -0.24 / -0.38 | -0.40 | 3 of 18 (2.55) |
| KSSISSLYESRNKNSVA | AASTRES | QQYHRLPLS | 0.36 / 0.03 / 0.14 / -0.05 / -0.15 / 0.29 | 0.10 | 0 of 18 |
| KSSQSVLGEDRNKNSVA | DASTRES | QQYHRLPLS | 0.27 / 0.17 / -0.11 / 0.04 / 0.30 / 0.40 | 0.18 | 2 of 18 (2.29) |
| KFSQWVLYESRDKNSVA | NASTRES | QQYHRLPLS | 0.22 / 0.19 / 0.29 / 0.17 / 0.02 / 0.26 | 0.19 | 1 of 18 (2.32) |
| KSSESVLYESNNKNSVA | HASTRED | QQYHRLPLS | 0.80 / 0.93 / 0.42 / 0.50 / 0.55 / 0.87 | 0.68 | 1 of 18 (3.02) |
| KSEQSVLYESRNKNSVA | HASTRED | QQYGRLPLS | -0.01 / -0.07 / -0.20 / -0.07 / 0.02 / 0.05 | -0.05 | 1 of 18 (3.24) |
| KSEQGVLYESRNKNSVA | GASLRES | QQYHRLPLS | 2.22 / 0.71 / 1.03 / 1.10 / 0.69 / 0.79 | 1.09 | 1 of 18 (2.70) |
| KSSPSVLYESINKNSVA | NASTRMS | QQYHRLPLS | 0.15 / 0.13 / 0.01 / 0.02 / 0.09 / 0.26 | 0.11 | 2 of 18 (2.57) |
| KISQSVLMEWRNKNSVA | SASTRES | QQYHRLPLS | 0.34 / 0.40 / 0.45 / 0.29 / 0.30 / 0.26 | 0.34 | 1 of 18 (1.79) |
| KSSDSVLQESRNKNSVA | DASTRES | QQYHRLPLS | 0.27 / 0.27 / 0.40 / 0.09 / 0.26 / 0.33 | 0.27 | 1 of 18 (2.68) |
| KSSGSILYESVNKNSVA | HASTRES | QQYHRLPLS | 0.44 / 1.16 / 0.16 / 0.42 / 0.21 / 0.30 | 0.45 | 0 of 18 |
| KVSMSFLYESRNKNSVA | GASTRES | QQYHRLPLS | 0.12 / -0.04 / -0.13 / -0.12 / -0.01 / 0.13 | -0.01 | 1 of 18 (2.75) |
| YFSQSVLYESRTKNSVA | NASTRES | QQYHRLPLS | 0.15 / -0.25 / -0.52 / -0.33 / -0.52 / -0.20 | -0.28 | 1 of 18 (2.02) |
| KVSQSVLYESGTKNSVA | NASCRES | QQYHRLPLS | 1.99 / 0.87 / 0.41 / 0.72 / 0.41 / 0.49 | 0.82 | 0 of 18 |
| KSLQSWLYESRNKNSVA | HASQREQ | QQYHRLPLS | 0.37 / 0.21 / 0.30 / 0.08 / 0.04 / 0.17 | 0.20 | 1 of 18 (3.00) |
| KFSPSVLYESRQKNSVA | NASTRES | QQYHRLPLS | -0.19 / -0.03 / -0.30 / -0.14 / -0.38 / 0.00 | -0.17 | 1 of 18 (2.90) |
| KYSQSVLGEQRNKNSVA | DASTRES | QQYHRLPLS | -0.29 / -0.38 / -0.24 / -0.26 / -0.33 / -0.13 | -0.27 | 1 of 18 (1.62) |
| KVSWSYLLESRNKNSVA | EASTRES | QQYHRLPLS | -0.02 / -0.42 / -0.21 / -0.08 / -0.46 / -0.20 | -0.23 | 1 of 18 (2.95) |
| KSSQSYLYESENKNSVA | EASQRES | QQYHRLPLS | 0.34 / 0.01 / 0.22 / 0.10 / -0.01 / 0.65 | 0.22 | 1 of 18 (2.68) |
| KSGQGWLYESRNKNSVA | GASQRWS | QQYHRLPLS | -0.03 / -0.13 / -0.19 / 0.02 / -0.05 / 0.04 | -0.06 | 0 of 18 |
| KSSQSQLYESGNKNSVA | HASTRES | QQYHRLPLS | n.d. / n.d. / 2.27 / 1.97 / n.d. / n.d. | 2.12 | 0 of 18 |
| KLSQSTLYDSQNKNSVA | WASTRES | QQYTRLPLS | 0.67 / 0.35 / 0.39 / 0.29 / 0.88 / 0.87 | 0.57 | 0 of 18 |
| KLRQSNLYESRNPNSVA | AASTRES | QQYHRLPLS | -0.09 / -0.13 / -0.10 / -0.27 / -0.18 / -0.14 | -0.15 | 2 of 18 (2.55) |
| KISQSWIYESRNKNSVA | GASTRES | QQYHRLPLS | -0.04 / -0.32 / -0.41 / -0.46 / -0.41 / -0.06 | -0.29 | 1 of 18 (2.32) |

A selection of 5 entries from above:

| CDR-L1 | CDR-L2 | CDR-L3 | replicates, log10 nM | log10 Kd (nM), mean | empty controls |
|---|---|---|---|---|---|
| KSSQSYLYESENKNSVA | EASQRES | QQYHRLPLS | 0.34 / 0.01 / 0.22 / 0.10 / -0.01 / 0.65 | 0.22 | 1 of 18 (2.68) |
| KYSQSVLGEQRNKNSVA | DASTRES | QQYHRLPLS | -0.29 / -0.38 / -0.24 / -0.26 / -0.33 / -0.13 | -0.27 | 1 of 18 (1.62) |
| KSSDSVLQESRNKNSVA | DASTRES | QQYHRLPLS | 0.27 / 0.27 / 0.40 / 0.09 / 0.26 / 0.33 | 0.27 | 1 of 18 (2.68) |
| KLSQSTLYDSQNKNSVA | WASTRES | QQYTRLPLS | 0.67 / 0.35 / 0.39 / 0.29 / 0.88 / 0.87 | 0.57 | 0 of 18 |
| KSEQSVLYESRNKNSVA | HASTRED | QQYGRLPLS | -0.01 / -0.07 / -0.20 / -0.07 / 0.02 / 0.05 | -0.05 | 1 of 18 (3.24) |